How the values were obtained:
Type in all cases: cell-based
rat GIPR = target: T1, rat GIPR (Rattus norvegicus, UniProt P43219); experiment: HitHunter cAMP assay in transiently transfected COS-7 cells, rat GIPR; details: COS-7 cells expressing rat GIPR
T1 construct: expressed in transfected cells; host or cells: COS-7
T1 sequence (P43219 19-455): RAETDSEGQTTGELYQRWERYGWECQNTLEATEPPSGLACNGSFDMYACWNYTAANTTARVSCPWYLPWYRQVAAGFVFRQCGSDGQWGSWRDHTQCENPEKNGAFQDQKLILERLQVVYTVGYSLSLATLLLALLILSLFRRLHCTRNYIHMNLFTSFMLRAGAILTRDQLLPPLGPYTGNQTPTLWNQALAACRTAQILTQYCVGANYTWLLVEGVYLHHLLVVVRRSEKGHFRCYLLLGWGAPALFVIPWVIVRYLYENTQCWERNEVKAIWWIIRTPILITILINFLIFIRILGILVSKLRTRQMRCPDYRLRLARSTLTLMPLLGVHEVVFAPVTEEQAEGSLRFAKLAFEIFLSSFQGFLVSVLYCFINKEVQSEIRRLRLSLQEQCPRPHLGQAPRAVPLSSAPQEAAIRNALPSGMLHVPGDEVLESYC
Procedure: (§1) The next day the assay was initiated by washing with HEPES buffered saline (HBS) and followed by an incubation step with assay buffer (HBS added 1 mM isobutyl-1-methylxanthine (IBMX)) for 30 min at 37° C. The ligands were then added and incubated for an additional 30 min at 37° C. After ligand incubation, the HitHunter® CAMP assay (Eurofins DiscoverX, Fremont, […] USA) was carried out according to the manufacturer's instructions. Luminescence was measured by PerkinElmer™ EnVision 2014 Multilabel Reader (PerkinElmer, Waltham, MA). The potencies (EC50 values) were determined by nonlinear regression using GraphPad Prism 9 (San Diego, California, USA). Sigmoid curves were fitted logistically. The efficacies (Emax values) were determined by normalization to the highest concentration applied of the endogenous ligand for each receptor.

By UniProt entry, the sequences of proteins in these tests, tags left out. Residues count along the entry.
UniProt P43220, 24-463: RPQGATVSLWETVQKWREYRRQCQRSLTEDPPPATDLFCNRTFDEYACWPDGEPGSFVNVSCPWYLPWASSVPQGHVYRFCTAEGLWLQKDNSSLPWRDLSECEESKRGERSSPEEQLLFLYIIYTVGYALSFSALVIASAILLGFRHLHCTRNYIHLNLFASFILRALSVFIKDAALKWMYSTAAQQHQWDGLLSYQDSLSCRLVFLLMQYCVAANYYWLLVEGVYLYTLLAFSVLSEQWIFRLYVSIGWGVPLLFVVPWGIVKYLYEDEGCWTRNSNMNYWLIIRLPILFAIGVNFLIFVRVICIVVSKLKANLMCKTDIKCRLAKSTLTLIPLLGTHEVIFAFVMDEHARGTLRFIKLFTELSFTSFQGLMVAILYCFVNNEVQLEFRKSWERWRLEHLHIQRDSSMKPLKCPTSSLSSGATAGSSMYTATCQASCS

rat GLP-2R = target: T2, rat GLP-2R (Rattus norvegicus, UniProt Q9Z0W0); experiment: HitHunter cAMP assay in transiently transfected COS-7 cells, rat GLP-2R; details: COS-7 cells expressing rat GLP-2R
T2 construct: expressed in transfected cells; host or cells: COS-7
T2 sequence (Q9Z0W0 1-550): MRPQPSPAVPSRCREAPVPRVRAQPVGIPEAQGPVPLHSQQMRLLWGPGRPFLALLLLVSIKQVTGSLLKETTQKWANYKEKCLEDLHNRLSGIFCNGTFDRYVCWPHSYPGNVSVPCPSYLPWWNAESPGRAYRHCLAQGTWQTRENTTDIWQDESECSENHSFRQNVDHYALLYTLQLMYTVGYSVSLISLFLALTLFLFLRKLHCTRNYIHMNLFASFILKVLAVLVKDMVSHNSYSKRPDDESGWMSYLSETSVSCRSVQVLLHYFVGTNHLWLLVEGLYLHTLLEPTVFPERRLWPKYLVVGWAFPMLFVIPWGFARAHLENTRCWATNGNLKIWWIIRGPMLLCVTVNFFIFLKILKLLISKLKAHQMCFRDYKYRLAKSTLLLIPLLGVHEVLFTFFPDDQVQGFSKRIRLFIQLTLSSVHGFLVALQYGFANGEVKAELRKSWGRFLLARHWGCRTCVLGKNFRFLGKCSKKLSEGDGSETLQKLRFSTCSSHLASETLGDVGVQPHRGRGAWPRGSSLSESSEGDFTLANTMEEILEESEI
Procedure: as §1

human GLP-2R = target: T3, human GLP-2R (Homo sapiens, UniProt O95838); experiment: HitHunter cAMP assay in transiently transfected COS-7 cells, human GLP-2R; details: cAMP, COS-7 cells expressing human GLP-2R; Table 2;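 note: cells kept 30 min at 37 °C in buffer with 1 mM IBMX, then given ligand for another 30 min at 37 °C before cAMP readout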
T3 construct: host or cells: COS-7
T3 sequence (O95838 1-553): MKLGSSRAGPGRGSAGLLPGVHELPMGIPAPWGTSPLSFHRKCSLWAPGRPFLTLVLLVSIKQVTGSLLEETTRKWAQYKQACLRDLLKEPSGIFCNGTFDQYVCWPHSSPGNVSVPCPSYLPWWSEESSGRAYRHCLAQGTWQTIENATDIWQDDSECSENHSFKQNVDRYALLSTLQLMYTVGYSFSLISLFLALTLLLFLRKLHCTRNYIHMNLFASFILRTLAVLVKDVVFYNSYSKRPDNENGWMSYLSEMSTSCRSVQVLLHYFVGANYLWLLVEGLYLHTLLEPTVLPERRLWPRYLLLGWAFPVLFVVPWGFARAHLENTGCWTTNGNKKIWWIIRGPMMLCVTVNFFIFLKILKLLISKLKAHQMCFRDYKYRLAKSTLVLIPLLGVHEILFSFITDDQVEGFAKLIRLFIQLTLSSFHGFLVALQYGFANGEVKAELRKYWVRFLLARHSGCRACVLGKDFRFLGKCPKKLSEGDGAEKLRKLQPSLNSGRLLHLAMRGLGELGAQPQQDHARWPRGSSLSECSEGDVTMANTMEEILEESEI

human GLP-1R = target: T4, human GLP-1R (Homo sapiens, UniProt P43220); experiment: HitHunter cAMP assay in transiently transfected COS-7 cells, human GLP-1R; details: cAMP, COS-7 cells expressing human GLP-1R; Table 3
T4 construct: host or cells: COS-7
Procedure: as §1

human GIPR = target: T5, human GIPR (Homo sapiens, UniProt P48546); parameters: host or cells: COS-7; details: Table 2; for EC50 / PEC50 GIPR: cAMP, COS-7 cells expressing human GIPR
T5 sequence (P48546 22-466): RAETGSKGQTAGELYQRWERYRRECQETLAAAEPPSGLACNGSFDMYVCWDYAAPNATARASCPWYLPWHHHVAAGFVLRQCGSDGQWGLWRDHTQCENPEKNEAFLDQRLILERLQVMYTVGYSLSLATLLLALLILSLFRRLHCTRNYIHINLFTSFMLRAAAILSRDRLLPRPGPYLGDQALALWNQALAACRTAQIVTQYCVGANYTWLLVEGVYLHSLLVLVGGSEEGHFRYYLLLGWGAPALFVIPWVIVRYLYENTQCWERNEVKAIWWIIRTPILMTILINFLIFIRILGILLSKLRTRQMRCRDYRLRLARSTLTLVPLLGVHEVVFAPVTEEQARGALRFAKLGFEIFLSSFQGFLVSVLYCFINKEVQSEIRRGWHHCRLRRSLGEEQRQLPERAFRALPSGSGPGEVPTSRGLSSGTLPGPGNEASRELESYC
Procedure: as §1

Row | Substance | rGIPR pEC50 (rat GIPR) | rGLP-2R pEC50 (rat GLP-2R) | EC50 (human GLP-2R) [nM] | logEC50 GLP-2R (human GLP-2R) | EC50 (human GLP-1R) [nM] | logEC50 GLP-1R (human GLP-1R) | EC50 (human GIPR) [nM] | PEC50 GIPR (human GIPR) | Efficacy GIPR (human GIPR; Emax normalized to highest concentration of endogenous ligand)
1 | H-Aib-DGTFISDY-K(γGlu-C16)-TILDNLAARDFINWLIQTKITK-OH [Compound no. 11] | 8.6 | 8.4 |  |  |  |  |  |  | 
2 | H-Aib-DGTFISDY-K(γGlu-C10)-TILDKLAARDFIEWLIATKITK-OH [Compound no. 31] | 8.5 | 8.9 | 3.7 | 8.4 | 39.8 | 7.4 | 0.398 | 9.4 | 
3 | H-Aib-DGTFISDY-K(yglu-C10)-T-Aib-LDNLAARDFINWLIQTKITGNDWKHNITQ-OH [Compound no. 54] | 7.5 |  | 1.3 | 8.9 | 39.8 | 7.4 | 1.17 | 8.9 | 
4 | (C16)HADGTFISDYSTAibLDNLAARDFINWLIQTKITKNDWKHNITQ [Compound no. 53] | 8.7 | 7.5 |  |  |  | no activation | 0.316 | 9.5 | 
5 | (C16)HADGTFISDYSTILELLAARDFINWLIQTKITKNDWKHNITQ [Compound no. 15] |  |  | 50.1 | 7.3 |  | no activation | 2.93 | 8.5 | 
6 | (C16)HADGTFISDYSTILDELAARDFINWLIQTKITKNDWKHNITQ [Compound no. 48] |  |  | 25.1 | 7.6 |  | no activation | 2.82 | 8.6 | 
7 | (C10)HADGTFISDYSTILDNLAAKDFINWLIQTKITKNDWKHNITQ [Compound no. 3] |  |  | 5 | 8.3 |  | no activation | 0.584 | 9.2 | 
8 | Ac-H-Aib-DGTFISDY-K(γGlu-C16)-T-Aib-LDNLAARDFINWLIQTKITKNDWKHNITQ-OH [Compound no. 38] |  |  | 3.5 | 8.5 |  | no activation | 3.55 | 8.5 | 
9 | (C16)HADGTFISDYSTILDNLAARDFINWLLAQKITK [Compound no. 46] |  |  | 23.3 | 7.6 |  | no activation | 1.58 | 8.8 | 
10 | H-Aib-DG-K(γGlu-C16)-FISDYSTILDNLAARDFINWLIQTKITK-OH [Compound no. 9] | 9.5 | 7.9 | 2.5 | 8.6 | 70.8 | 7.2 | 0.141 | 9.9 | 
11 | (C16-diacid)H-Aib-EGTFISDYST-Aib-LDNLAARDFINWLIQTKITK-OH [Compound no. 19] |  |  | 2.8 | 8.6 |  | no activation | 0.708 | 9.2 | 
12 | (C16)HADGTFISDYSTILDNLAARDFINWLIATKITKNDWKHNITQ [Compound no. 52] |  |  | 7.9 | 8.1 |  | no activation | 0.251 | 9.6 | 96
13 | H-Aib-DGTFISDYSTIL-K(γGlu-C16)-NLAARDFINWLIQTKITK-OH [Compound no. 13] | 7.5 | 8.1 | 6.3 | 8.2 |  | no activation | 0.794 | 9.1 | 
14 | (C16-diacid)H-Aib-DGTFISDYST-Aib-LDKLAARDFINWLIETKITK-OH [Compound no. 23] |  |  | 1.8 | 8.8 |  | no activation | 1.78 | 8.8 | 
15 | H-Aib-DGTFISDY-K(γGlu-C16)-TILDNLAARDFINWLIQTKGKKNDWKHNITQ-NH2 [Compound no. 14] | 8.8 | 8.4 | 3.5 | 8.5 |  | no activation | 0.266 | 9.6 | 
16 | (C16-diacid)H-Aib-DGTFISDYST-Aib-LDKLAARDFIEWLIQTKITK-OH [Compound no. 22] |  |  | 2.5 | 8.6 |  | no activation | 1.1 | 9.0 | 
17 | (C16)HADGTFISDYSTILDNLAARDFINWLIQTKITKAEWKHAITQ [Compound no. 49] |  |  | 35.5 | 7.5 |  | no activation | 2.82 | 8.6 | 
18 | (C10)H-Aib-DGTFISDYST-Aib-LDNLAARDFINWLIQTKITK-OH [Compound no. 44] | 8.4 | 8.1 | 2.9 | 8.5 | 18.5 | 7.7 | 1.07 | 9.0 | 
19 | (C16)H-Aib-DGTFISDYSTILDNLAARDFIEWLIQTKIT-OH [Compound no. 8] |  |  | 5 | 8.3 | 10 | 8.0 | 1.58 | 8.8 | 
20 | (C16)HADGTFISDYSTILDNLAARDFINWLIQTKITD [Compound no. 4] |  |  | 27.1 | 7.6 |  | no activation | 3.69 | 8.4 | 
21 | (C16)HADGTFISDYSTILDNLAARDFINWLIETKITKNDWKHNITQ [Compound no. 51] |  |  | 12.6 | 7.9 |  | no activation | 0.398 | 9.4 | 
